One may read the Kd as the free concentration of one partner at which half of the binding sites on the other are occupied at equilibrium, for simple one-to-one binding. Read a high Kd as weaker binding. In general, Ki refers to a dissociation constant, usually derived from enzyme kinetics or from competition with a known ligand. Read a low Ki as tighter binding.

For test [1], the target named is T1, human PD-L1 (human, UniProt Q9NZQ7 19-238).
T1 construct: Soluble recombinant protein; In the SPR assay it was biotinylated and captured on streptavidin; also called hPD-L1; Programmed cell death 1 ligand 1
The test can be described thus: fluorescence polarisation, listed in Table 1 (direct binding assay). As to the method: (§1) Affinity of the peptides of the invention for human PD-L1 (Ki) was determined using a fluorescence polarisation assay, in accordance with the methods disclosed in WO2016/067035. Peptides of the invention with a fluorescent tag (either fluorescein, SIGMA or Alexa Fluor488™, Fisher Scientific) were diluted to 2.5 nM in PBS with 0.01% tween 20 or 50 mM HEPES with 100 mM NaCl and 0.01% tween pH 7.4 (both referred to as assay buffer). This was combined with a titration of protein in the same assay buffer as the peptide to give 1 nM peptide in a total volume of 25 μL in a black walled and bottomed low bind low volume 384 well plates, typically 5 μL assay buffer, 10 μL protein then 10 μL fluorescent peptide. […] Measurements were conducted on a BMG PHERAstar FS equipped with an “FP 485 520 520” optic module which excites at 485 nm and detects parallel and perpendicular emission at 520 nm. The PHERAstar FS was set at 25° C. with 200 flashes per well and a positioning delay of 0.1 second, with each well measured at 5 to 10 minute intervals for 60 minutes. The gain used for analysis was determined for each tracer at the end of the 60 minutes where there was no protein in the well. Data was analysed using Systat Sigmaplot version 12.0. mP values were fit to a user defined quadratic equation to generate a Kd value: f=ymin+(ymax−ymin)/Lig*((x+Lig+Kd)/2−sqrt((((x+Lig+Kd)/2)\hat{ }2)−(Lig*x))). “Lig” was a defined value of the concentration of tracer used.
A general note: Polarisation of emitted light reports the rotation of a fluorescent probe.

The target in test [2] is T1, human PD-L1. The test can be described thus: fluorescence polarisation competition, competitor tracer BCY585. The method, then: as §1
Peptides were diluted to an appropriate concentration in assay buffer as described in the direct binding assay with a maximum of 5% DMSO, then serially diluted 1 in 2. Five μL of diluted peptide was added to the plate followed by 10 μL of human PD-L1, then 10 μL fluorescent peptide added. Measurements were conducted as for the direct binding assay, however the gain was determined prior to the first measurement.

Test [3] deals with T1, human PD-L1. The test can be described thus: fluorescence polarisation, listed in Table 1 (direct binding assay); mean of 4 experiments. As to the method:
Affinity of the peptides of the invention for human PD-L1 (Ki) was determined using a fluorescence polarisation assay, in accordance with the methods disclosed in WO2016/067035. Peptides of the invention with a fluorescent tag (either fluorescein, SIGMA or Alexa Fluor488™, Fisher Scientific) were diluted to 2.5 nM in PBS with 0.01% tween 20 or 50 mM HEPES with 100 mM NaCl and 0.01% tween pH 7.4 (both referred to as assay buffer). This was combined with a titration of protein in the same assay buffer as the peptide to give 1 nM peptide in a total volume of 25 μL in a black walled and bottomed low bind low volume 384 well plates, typically 5 μL assay buffer, 10 μL protein then 10 μL fluorescent peptide. […] Measurements were conducted on a BMG PHERAstar FS equipped with an “FP 485 520 520” optic module which excites at 485 nm and detects parallel and perpendicular emission at 520 nm. The PHERAstar FS was set at 25° C. with 200 flashes per well and a positioning delay of 0.1 second, with each well measured at 5 to 10 minute intervals for 60 minutes. The gain used for analysis was determined for each tracer at the end of the 60 minutes where there was no protein in the well. Data was analysed using Systat Sigmaplot version 12.0. mP values were fit to a user defined quadratic equation to generate a Kd value: f=ymin+(ymax−ymin)/Lig*((x+Lig+Kd)/2−sqrt((((x+Lig+Kd)/2)\hat{ }2)−(Lig*x))). […]

Test [4] concerns the target T1, human PD-L1. The test can be described thus: SPR (Biacore 3000), biotinylated PD-L1 captured on streptavidin, peptide as analyte. As to the method:
Biacore experiments were performed to determine kₐ (M⁻¹s⁻¹), kd (s⁻¹), KD (nM) values of monomeric peptides binding to human PD-L1 protein. […] The protein was desalted to remove uncoupled biotin using spin columns into PBS. For analysis of binding, a Biacore 3000 instrument was used utilizing a CM5 sensor chip (GE Healthcare). Streptavidin was immobilized on the chip using standard amine-coupling chemistry at 2500 with HBS-N (10 mM HEPES, 0.15 M NaCl, pH 7.4) as the running buffer. The carboxymethyl dextran surface was activated with a 12 min injection of a 1:1 ratio of 0.4 M 1-ethyl-3-(3-dimethylaminopropyl) carbodiimide hydrochloride (EDC)/0.1 M N-hydroxy succinimide (NHS) at a flow rate of 10 μl/min. For capture of streptavidin, protein was diluted to 0.1 mg/ml in 10 mM sodium acetate (pH 4.5) and captured by injecting 70 μl onto the activated chip surface. Residual activated groups were blocked with a 7 min injection of 1 M ethanolamine (pH 8.5). Biotinylated PD-L1 stock was diluted 1:100 in HBS-N and captured on one flow cell at 5 μl/min to a level of 1000-1300 RU. Buffer was changed to PBS/0.05% Tween 20 and a dilution series of the peptides was prepared in this buffer with a final DMSO concentration of 0.5%. The top concentrations were 200 nM or 500 nM with 6 2-fold dilutions. The SPR analysis was run at 25° C. at a flow rate of Flow rate 50 μl/min with 60 seconds association and 400 seconds disassociation. Data were corrected for DMSO excluded volume effects. All data were double-referenced for blank injections and reference surface using standard processing procedures and data processing and kinetic fitting were performed using Scrubber software, version 2.0c (Biologic Software). Data were fitted using mass transport model allowing for mass transport effects where appropriate.
Background: SPR reads the build-up and loss of mass on a sensor chip optically.

B1: BCY514 (peptide)
peptide: ACPDNNSICHLWCA
modifications: the three cysteines (Ci, Cii, Ciii) cyclised with TBMB (1,3,5-tris(bromomethyl)benzene)
notes: Bicyclic peptide on TBMB scaffold, no fluorescent tag
B1 gave a Kd in test [1] of 165 nM. The same molecule yielded a Ki in test [2] of 165 nM.

B2: BCY509 (peptide)
peptide: ACPFPVEWCPRCA
modifications: the three cysteines (Ci, Cii, Ciii) cyclised with TBMB (1,3,5-tris(bromomethyl)benzene)
notes: as for B1
On to B2, for which the affinity in test [2], expressed as Ki, was 6.53 nM. Also, the results for the equilibrium dissociation constant (Kd) in test [3] and in test [4] were 7.88 nM and 24.1 nM, respectively.

B3: BCY507 (peptide)
peptide: ACPFPVEWCSRCA
modifications: the three cysteines (Ci, Cii, Ciii) cyclised with TBMB (1,3,5-tris(bromomethyl)benzene)
notes: as for B1
Take B3: the Kd in test [1] was determined as 157 nM. In addition, the Ki in test [2] turned out to be 157 nM.

B4: BCY508 (peptide)
peptide: ACPFPEEWCPRCA
modifications: the three cysteines (Ci, Cii, Ciii) cyclised with TBMB (1,3,5-tris(bromomethyl)benzene)
notes: as for B1
The molecule B4 had a Kd in test [1] of 75.1 nM. This molecule also returned a Ki in test [2] of 75.1 nM.

B5: BCY515 (peptide)
peptide: ACPDPHGICHLWCA
modifications: the three cysteines (Ci, Cii, Ciii) cyclised with TBMB (1,3,5-tris(bromomethyl)benzene)
notes: as for B1
With B5, the Kd in test [1] worked out at 51.2 nM; in test [4] it was 212 nM. In test [2], the inhibition constant (Ki) was determined as 51.2 nM.

B6: BCY516 (peptide)
peptide: ACPDPHNICHLWCA
modifications: the three cysteines (Ci, Cii, Ciii) cyclised with TBMB (1,3,5-tris(bromomethyl)benzene)
notes: as for B1
B6: the Kd in test [1] was found to be 48.8 nM; in test [4], 171 nM. For the same molecule, the Ki in test [2] came out at 48.8 nM.

Source of the values: patent US20260137791A1 (published 2026).
